Measured values as given in US20240139185A1, “COMPOUNDS THAT PARTICIPATE IN COOPERATIVE BINDING AND USES THEREOF” (Revolution Medicines, Inc., priority 2018, published 2024).

What was measured:
[1] = biological target: BRAF-GTP-KRAS-G12C complex (Homo sapiens, UniProt P01116+P62937, G12C); assay: KRAS-BRAF complex disruption through competition with CYPA-compound by TR-FRET; details: read-out: BRAF-GTP-KRAS-G12C Disruption; biochemical BRAF-KRAS G12C-GTP disruption assay EC50, with CYPA
In short: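 His6-KRAS G12C-GTP (1-169, 50 nM) with tagless CypA (1-165, 500 nM) was incubated with compound for 3 h at room temperature in pH 7.3 Hepes/NaCl/MgCl2 buffer containing GST-BRAF RBD. Anti-His Eu (10 nM) and anti-GST APC (50 nM) were then added for 1.5 h, and the 665/615 nm TR-FRET ratio was read. EC50 from 4-parameter fit; for specificity, wild-type KRAS replaced G12C, and CypA was omitted to test presenter dependence.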

cyclophilin A (CYPA) = cyclophilin A (CYPA) (Homo sapiens, UniProt P62937); assay: CYPA-compound binary complex formation by SPR; details: read-out: CYPA Binding Affinity
In short: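 CypA-Avi captured on a Biotin CAPture chip (4 μg/ml), reference flow cell subtracted. Compounds injected as 10-point 2-fold dilutions from 50 μM in HBS-P+ pH7.4 with 2% DMSO; 60 s association and 60 s dissociation, solvent-corrected. Affinity obtained by steady-state fitting.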

pERK in H358 cells = assay: pERK inhibition in H358 cells; details: read-out: Cellular pERK inhibition, 4 hours treatment
In short: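 Human lung cancer H358 cells in RPMI/10% FBS were exposed to compound or DMSO for 4 h. Fixed and permeabilized cells were stained overnight at 4 C with anti-phospho-ERK1/2 (Thr202/Tyr204). Near-infrared imaging read the pERK signal at 800 nm, with DRAQ5 at 700 nm.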

Row | Compound | EC50 [1] | Kd (cyclophilin A (CYPA)) | IC50 (pERK in H358 cells)
1 | CC(C)[C@@H](C(=O)NC1Cc2cc(O)cc(c2)-c2ccc3c(C#N)cn(c3c2)CCCCOC(=O)[C@@H]2CCCN(N2)C1=O)N(C)C(=O)C1CN(C(=O)CCl)C1 (stereo partly drawn) | 0.5 to 5 µM | < 5 µM | > 10 µM
2 | C=CC(=O)N1CC[C@H](C(=O)N(C)[C@H](C(=O)N[C@H]2Cc3cc(O)cc(c3)-c3ccc4c(c3)c(cn4-c3c(Br)cccc3C#N)CC(C)COC(=O)[C@@H]3CCCN(N3)C2=O)C(C)C)C1 (single isomer, unassigned) [382] | 0.5 to 5 µM | 5 to 15 µM | < 1 µM
3 | COCc1ccccc1-c1cn2c3cc(ccc13)-c1cc(O)cc(c1)C[C@H](NC(=O)[C@H](C(C)C)N(C)C(=O)C1CN(C(=O)[C@@H](C)Cl)C1)C(=O)N1CCC[C@H](N1)C(=O)OCC(C)(C)C2 | 0.5 to 5 µM | > 15 µM | 1 to 10 µM
4 | CC(C)[C@@H](C(=O)N[C@H]1Cc2cc(O)cc(c2)-c2ccc3c4c(n(c3c2)C[C@H](C)COC(=O)[C@@H]2CCCN(N2)C1=O)COCC4(C)C#N)N(C)C(=O)C1CN(C(=O)CCl)C1 (single isomer, unassigned) [64] | < 0.5 µM | 5 to 15 µM | 1 to 10 µM
5 | Cc1nn2c3cc(ccc13)-c1cc(O)cc(c1)C[C@H](NC(=O)[C@H](C(C)C)N(C)C(=O)C1CN(C(=O)CCl)C1)C(=O)N1CCC[C@H](N1)C(=O)OCC(C)(C)C2 | < 0.5 µM | 5 to 15 µM | < 1 µM
6 | CC(C)[C@@H](C(=O)N[C@H]1Cc2cc(O)cc(c2)-c2ccc3c(C(C)(C)C#N)cn(c3c2)CC(Cc2ccccc2)COC(=O)[C@@H]2CCCN(N2)C1=O)N(C)C(=O)C1CN(C(=O)CCl)C1 (stereo partly drawn) | < 0.5 µM | > 15 µM | 1 to 10 µM
7 | CC(C)[C@@H](C(=O)N[C@H]1Cc2cc(O)cc(c2)-c2ccc3c(C(C)(C)C#N)cn(c3c2)CC(C)(C)COC(=O)[C@@H]2CCCN(N2)C1=O)N(C)C(=O)[C@@H]1CCCN(C(=O)CCl)C1 | 0.5 to 5 µM | 5 to 15 µM | > 10 µM
8 | CC(C)[C@@H](C(=O)N[C@H]1Cc2cc(O)cc(c2)-c2ccc3c(C(C)(C)CC#N)cn(c3c2)CC(C)(C)COC(=O)[C@@H]2CCCN(N2)C1=O)N(C)C(=O)C1CN(C(=O)[C@@H](C)Cl)C1 | 0.5 to 5 µM | 5 to 15 µM | 1 to 10 µM
9 | CC(C)[C@@H](C(=O)N[C@H]1Cc2cc(O)cc(c2)-c2ccc3c(-c4c(F)cccc4C#N)cn(c3c2)CC(C)(C)COC(=O)[C@@H]2CCCN(N2)C1=O)N(C)C(=O)C1CN(C(=O)CCl)C1 | < 0.5 µM | 5 to 15 µM | < 1 µM
10 | C=CC(=O)N1CC[C@H](C(=O)N(C)[C@H](C(=O)N[C@H]2Cc3cc(O)cc(c3)-c3ccc4c(c3)N(CC(C)(C)COC(=O)[C@@H]3CCCN(N3)C2=O)CC4(C)COC)C(C)C)C1 (single isomer, unassigned) | 0.5 to 5 µM | 5 to 15 µM | 1 to 10 µM
11 | CC(C)[C@@H](C(=O)N[C@H]1Cc2cc(O)cc(c2)-c2ccc3c(c2)n(c(=O)n3CC(F)F)C[C@H](C)COC(=O)[C@@H]2CCCN(N2)C1=O)N(C)C(=O)C1CN(C(=O)CCl)C1 | < 0.5 µM | 5 to 15 µM | > 10 µM
12 | CC#CC(=O)N1CC[C@@H]1C(=O)N(C)[C@H](C(=O)N[C@H]1Cc2cc(O)cc(c2)-c2ccc3nc(C)n(c3c2)CC(C)(C)COC(=O)[C@@H]2CCCN(N2)C1=O)C(C)C | > 5 µM | > 15 µM | > 10 µM
13 | CC(C)[C@@H](C(=O)N[C@H]1Cc2cc(O)cc(c2)-c2ccc3c(-c4cccc5c4OC(F)(F)O5)cn(c3c2)CC(C)(C)COC(=O)[C@@H]2CCCN(N2)C1=O)N(C)C(=O)C1CN(C(=O)CCl)C1 | < 0.5 µM | > 15 µM | > 10 µM
14 | CC(C)[C@@H](C(=O)N[C@H]1Cc2cc(O)cc(c2)-c2ccc3c(c2)N(C[C@H](C)COC(=O)[C@@H]2CCCN(N2)C1=O)CC3(C)/C=C/C#N)N(C)C(=O)C1CN(C(=O)CCl)C1 (single isomer, unassigned) [222] | < 0.5 µM | < 5 µM | < 1 µM
15 | C=CC(=O)N1CC[C@H](C(=O)N(C)[C@H](C(=O)N[C@H]2Cc3cc(O)cc(c3)-c3ccc4c(-c5cccc(CN6CCS(=O)(=O)CC6)c5)cn(c4c3)CC(C)(C)COC(=O)[C@@H]3CCCN(N3)C2=O)C(C)C)C1 | > 5 µM | < 5 µM | > 10 µM
16 | C=CC(=O)N1CCC(C(=O)N(C)[C@H](C(=O)N[C@H]2Cc3cc(O)cc(c3)-c3ccc4c(C(C)(C)C#N)cn(c4c3)CC(c3ccccc3)COC(=O)[C@@H]3CCCN(N3)C2=O)C(C)C)C1 (stereo partly drawn) | 0.5 to 5 µM | < 5 µM | < 1 µM
17 | CC1COC(=O)[C@@H]2CCCN(N2)C(=O)[C@@H](NC(=O)[C@H](C(C)C)N(C)C(=O)C2CN(C(=O)[C@@H](C)Cl)C2)Cc2cc(O)cc(c2)-c2ccc3c(c2)c(cn3C(C)(C)C#N)C1 (single isomer, unassigned) [260] | > 5 µM | < 5 µM | 1 to 10 µM

Row | Compound | EC50 [1] | Kd (cyclophilin A (CYPA)) | IC50 (pERK in H358 cells)
18 | CC(C)[C@@H](C(=O)N[C@H]1Cc2cc(O)cc(c2F)-c2ccc3c(C(C)(C)C#N)cn(c3c2)CC(C)(C)COC(=O)[C@@H]2CCCN(N2)C1=O)N(C)C(=O)C1CN(C(=O)CCl)C1 | < 0.5 µM | > 15 µM | > 10 µM
19 | Cc1cn2c3cc(ccc13)-c1cc(O)cc(c1)C[C@H](NC(=O)[C@H](C(C)C)N(C)C(=O)C1CN(C(=O)CCl)C1)C(=O)N1CCC[C@H](N1)C(=O)OCC(C)(C)C2 | < 0.5 µM | > 15 µM | < 1 µM
20 | C=CC(=O)N1CC[C@H](C(=O)N(C)[C@H](C(=O)N[C@H]2Cc3cc(O)cc(c3)-c3ccc4nc(C)n(c4c3)CC(C)(C)COC(=O)[C@@H]3CCCN(N3)C2=O)C(C)C)C1 | > 5 µM | > 15 µM | > 10 µM
21 | COCc1nn2c3cc(ccc13)-c1cc(O)cc(c1)C[C@H](NC(=O)[C@H](C(C)C)N(C)C(=O)C1CN(C(=O)CCl)C1)C(=O)N1CCC[C@H](N1)C(=O)OC[C@@H](C)C2 | < 0.5 µM | > 15 µM | 1 to 10 µM
22 | CCC(C#N)(CC)c1cn2c3cc(ccc13)-c1cc(O)cc(c1)C[C@H](NC(=O)[C@H](C(C)C)N(C)C(=O)C1CN(C(=O)CCl)C1)C(=O)N1CCC[C@H](N1)C(=O)OCC(C)(C)C2 | < 0.5 µM | > 15 µM | < 1 µM
23 | C=CC(=O)N1CC[C@@H](C(=O)N(C)[C@H](C(=O)N[C@H]2Cc3cc(O)cc(c3)-c3ccc4c(C(C)(C)C#N)cn(c4c3)CC(C)(C)COC(=O)[C@@H]3CCCN(N3)C2=O)C(C)C)C1 | 0.5 to 5 µM | > 15 µM | > 10 µM
24 | COc1ccc(C#N)c(-c2cn3c4cc(ccc24)-c2cc(O)cc(c2)C[C@H](NC(=O)[C@H](C(C)C)N(C)C(=O)C2CN(C(=O)CCl)C2)C(=O)N2CCC[C@H](N2)C(=O)OCC(C)(C)C3)c1 | < 0.5 µM | 5 to 15 µM | 1 to 10 µM
25 | CC(C)[C@@H](C(=O)N[C@H]1Cc2cc(O)cc(c2)-c2ccc3c(-c4cccc5c4OCO5)cn(c3c2)CC(C)(C)COC(=O)[C@@H]2CCCN(N2)C1=O)N(C)C(=O)C1CN(C(=O)CCl)C1 | < 0.5 µM | > 15 µM | 1 to 10 µM
26 | CC(C)[C@@H](C(=O)N[C@H]1Cc2cc(O)cc(c2)-c2ccc3c(c2)N(CC3C(C)(C)C#N)C[C@H](C)COC(=O)[C@@H]2CCCN(N2)C1=O)N(C)C(=O)C1CN(C(=O)CCl)C1 (single isomer, unassigned) [248] | 0.5 to 5 µM | < 5 µM | 1 to 10 µM
27 | C=CC(=O)N1CC[C@H](C(=O)N(C)[C@H](C(=O)N[C@H]2Cc3cc(O)cc(c3)-c3ccc4c(c3)N(CC(C)(C)COC(=O)[C@@H]3CCCN(N3)C2=O)CC42Cc3ccncc3C2)C(C)C)C1 (stereo partly drawn) | 0.5 to 5 µM | 5 to 15 µM | 1 to 10 µM
28 | CC(C)[C@@H](C(=O)N[C@H]1Cc2cc(O)cc(c2)-c2ccc3c(C(C)(C)C#N)cn(c3c2)CC(C)(C)COC(=O)[C@@H]2CCCN(N2)C1=O)N(C)C(=O)[C@H]1CCCN(C(=O)CCl)C1 | 0.5 to 5 µM | 5 to 15 µM | > 10 µM
29 | C=CC(=O)N1CC[C@H](C(=O)N(C)[C@H](C(=O)N[C@H]2Cc3cc(O)cc(c3)-c3ccc4c(c3)c(c(C#N)n4CC)CC(C)(C)COC(=O)[C@@H]3CCCN(N3)C2=O)[C@@H](C)CC)C1 | < 0.5 µM | < 5 µM | < 1 µM
30 | COc1cccc(-c2cn3c4cc(ccc24)-c2cc(O)cc(c2)C[C@H](NC(=O)[C@H](C(C)C)N(C)C(=O)C2CN(C(=O)CCl)C2)C(=O)N2CCC[C@H](N2)C(=O)OCC(C)(C)C3)c1C#N | < 0.5 µM | < 5 µM | < 1 µM
31 | CC1COC(=O)[C@@H]2CCCN(N2)C(=O)[C@@H](NC(=O)[C@H](C(C)C)N(C)C(=O)C2CN(C(=O)CCl)C2)Cc2cc(O)cc(c2)-c2ccc3cc(C#N)n(c3c2)C1 (stereo partly drawn) | < 0.5 µM | < 5 µM | 1 to 10 µM
32 | CC(C)[C@@H](C(=O)N[C@H]1Cc2cc(O)cc(c2)-c2ccc3c(C(C)(C)C#N)cn(c3c2)CC(C)(C)COC(=O)[C@@H]2CCCN(N2)C1=O)N(C)C(=O)C1CCN(C(=O)CCl)C1 (single isomer, unassigned) | < 0.5 µM | 5 to 15 µM | 1 to 10 µM
33 | CC(C)[C@@H](C(=O)N[C@H]1Cc2cc(O)cc(c2)-c2ccc3c(C(C)(C)C#N)cn(c3c2)CC(C)(C)COC(=O)[C@@H]2CCCN(N2)C1=O)N(C)C(=O)[C@H]1CCN(C(=O)[C@H](C)Cl)C1 | 0.5 to 5 µM | 5 to 15 µM | 1 to 10 µM
